Reference: US7985594B2, “Biradical polarizing agents for dynamic nuclear polarization” (Massachusetts Institute of Technology, priority 2006, dated 2011)

Assay: Solubility in aqueous media
Format: physicochemical
From the text: In contrast, BT2E is insoluble in all of these media.

solubility in 200 mM salt (200 mM salt, solvent conditions common for protein samples): insoluble
solubility in glycerol/water (glycerol/water (6:4 w/w)): insoluble
solubility in water (water): insoluble
Substance: bis-TEMPO-2-ethyleneglycol [BT2E]
